Here are results for 1 substance from patent US11408891B2, “Imaging agent” (University of Lancaster, priority 2017, dated 2022).

The data set relates to HaCaT cells. The conditions noted are these: HaCaT cells incubated for 48 hours at the indicated concentrations (FIG. 3). As for the experimental part: HaCaT cells were grown on glass coverslips under the same conditions as in described in Steel 2015 referred to herein. […] The coverslips were then washed in PBS and mounted by inversion on a glass slide. Images were captured on a Zeiss LSM 850 Meta laser scanning confocal microscope.

Take PtMe3bpy-S-glutathione [compound A]: the toxicity result is listed as “low toxicity”.
